The list shows a part of the results, in another mix than the full data. Active and inactive are the calls of the source. Calls follow the shape of the dose curve; as a rule, active = well fitted activation curve with a large enough effect; inconclusive = small, poorly fitted or top-dose-only effect; inactive = flat fitted curve, though single readings scatter.

We go through 29 compounds from PubChem BioAssay AID925 (National Center for Advancing Translational Sciences (NCATS), 2007).

The nature of this experiment: qHTS Assay for Modulators of Hemoglobin Beta Chain Splicing. Also: 0% is about no effect. The note with it: HBB splicing reporter cell assay, EGFP reporter with mutant IVS2-654 intron, normalised to 500 nM splice-correcting PNA; at 46.1 µM (top of the series) unless noted. The text has this: NIH Chemical Genomics Center [NCGC]
NIH Molecular Libraries Screening Centers Network [MLSCN]
PI Name: Dr. Ryszard Kole
Modulation of Alternative Splicing as Therapy
Abnormal splicing is associated with a number of diseases, including cancer and genetic diseases such as cystic fibrosis, muscular dystrophy and beta-thalassemia. Alteration of disease associated splicing patterns provides a promising target for treatment. […] Mutations in the second intron of the beta-globin gene at positions are clinically relevant and cause mis-splicing which results in an out of frame gene product.
EGFP-654 and 705 HeLa Cells as screen system.
HeLa cell lines were stably transfected with a construct in which the EGFP (enhanced green fluorescent protein) cDNA was interrupted by the second intron of the beta-globin gene (IVS2-654). The ISV2 intron contains mutations which cause mis-splicing of EGFP and premature termination of EGFP which results in a nonfluorescent protein product. […] Expression of the transgene was driven by the CMV promoter. We concluded that a low molecular weight compound, which restored correct splicing of intron 2 would also generate functional EGFP protein, resulting in a fluorescent signal. Thus, the HeLa cells that express the EGFP-654 construct can be used for high throughput screening of a chemical library.
NCGC Assay Protocol Summary:
High Throughput Screening. Freshly thawed HeLa EGFP-654 cells were seeded in 5 ul of optimem media (Invitrogen) containing 2 % fetal calf serum (Hyclone) and 1x penicillin/streptomycin (Invitrogen) at a concentration of 500 cells per well in 1536-well plates. Cells were incubated overnight at 37C in 5% CO2. The next day, cells were treated with DMSO, 500 nM antisense ISV2 654 PNA control oligo, or library compound and allowed to grow at 37C in 5% CO2 for 2 days. The PNA oligo blocked the mutation site in the intron and allowed proper (wild type) splicing to occur, resulting in full length EGFP expression and also allowed for optimization of the assay parameters. Plates were read in the Acumen Explorer (TTP Labtech) using 488 nm laser excitation and 500-520 nm emission PMT filter in a 1 x […] capture mode. Fluorescnet Fluorescent objects ranging in size from […] were measured and the total peak GFP intensity for each well was used for data analysis.
Keywords: Thalassemia, beta-thalassemia, beta-globin, EGFP, ISV2 654, ISV2 705, SSO, PNA, antisense, splicing, MLSMR, MLSCN, NIH Roadmap, qHTS, NCGC
Take `Cc1nc2ccc3ccccc3c2s1.O=[N+]([O-])c1cc([N+](=O)[O-])c(O)c([N+](=O)[O-])c1`: the activation is inactive: -0.321% [at 57.5 µM].
Next, `Cc1ccc([N+](=O)[O-])cc1[N+](=O)[O-]`: inactive: -0.571%; `O=[N+]([O-])c1cccc([N+](=O)[O-])c1`: inactive: 0.604%; `Cc1ccc(C)c(NP(C)(=O)Oc2ccccc2)c1` (centres undefined): inactive: -0.558% [at 9.22 µM].
Then `O=[N+]([O-])[O-].[NH4+]`, with inactive: 1.97%; and `Cc1ccc(NP(C)(=O)Oc2ccccc2)c(C)c1` (centres undefined), with inactive: 0.146%.
Then `COc1ccccc1OP(C)(=O)Nc1ccc(C)cc1` (centres undefined), with inactive: -0.709%; and `CP(=S)(Nn1cnnc1)Oc1ccccc1` (centres undefined), with inactive: 4.51% [at 0.369 µM]; and `N1=C(c2nnc(-c3nn[nH]n3)nn2)NNN1`, with inactive: -0.488% [at 9.22 µM].
With `CCOP(C)(=S)SCC(=O)NC(C)C(=O)O` (centres undefined), the activation is inactive: 5.19%.
Then `CP(=O)(NC(=O)Nc1ccccc1)Oc1ccccc1` (centres undefined), with inactive: 0.491%; and `N#[O+].[C-]#N.[C-]#N.[C-]#N.[C-]#N.[C-]#N.[Fe+2].[Na+].[Na+]`, with inactive: 0.329%.
Turning to `CP(=O)(Oc1ccccc1)N1CCOC1=O` (centres undefined), the activation was inactive: 0.723%.
Regarding `COc1ccccc1OP(C)(=O)Nc1c(C)n(C)n(-c2ccccc2)c1=O` (centres undefined), the activation was inactive: 0.866% [at 1.84 µM].
`C/C1=C2N=C(/C=C3N=C(/C(C)=C4\[N-][C@@](C)([C@H]5N=C1[C@@](C)(CCC(=O)NC[C@H](C)OP(=O)([O-])O[C@@H]1[C@H](O)[C@H](n6cnc7cc(C)c(C)cc76)O[C@@H]1CO)[C@@H]5CC(N)=O)[C@](C)(CC(N)=O)[C@H]4CCC(N)=O)[C@@](C)(CC(N)=O)[C@@H]\3CCC(N)=O)C(C)(C)[C@@H]/2CCC(N)=O.[C-]#N.[Co+3]`: the activation is inactive: 0.24% [at 20.6 µM].
Turning to `Cc1nc2ccc3ccccc3c2o1.O=[N+]([O-])c1cc([N+](=O)[O-])c(O)c([N+](=O)[O-])c1`, the activation was inactive: -0.699%.
For the compound `COc1ccccc1OP(C)(=O)Nc1ccc(C)c(C)c1` (centres undefined), the activation is inactive: -0.168% [at 57.5 µM].
Then `CP(=O)(Nc1ccccn1)Oc1ccccc1` (centres undefined), with inactive: 0.857%; and `CP(=O)(Nc1ccccc1F)Oc1ccccc1` (centres undefined), with inactive: 1.91%.
Then `Cc1cccc([N+](=O)[O-])c1[N+](=O)[O-]`, with inactive: -1.17%; and `CCC(C)(OO)OOC(C)(CC)OO` (centres undefined), with inactive: -0.158%; and `Cc1ccc([N+](=O)[O-])c([N+](=O)[O-])c1`, with inactive: 0.392%.
`Cc1c([N+](=O)[O-])cccc1[N+](=O)[O-]`: the activation is inactive: 0.378%.
Regarding `CP(=O)(Nc1ccc2c(c1)OCCO2)Oc1ccccc1` (centres undefined), the activation was inactive: 0.477%.
Then `NNC(NN)NN.n1nc(-c2nn[nH]n2)n[nH]1`, with inactive: 2.28% [at 9.22 µM]; and `[NH4+].[O-][Cl+3]([O-])([O-])[O-]`, with inactive: -0.815%.
In the case of `Cc1ccccc1NP(C)(=O)Nc1ccccc1C`, the activation was inactive: 5.77% [at 0.369 µM].
Then `CCOP(=O)(CC)OCC`, with inactive: 1.54%.
Turning to `CCOP(C)(=S)SCC(=O)NC(C)(CC)C(=O)O` (centres undefined), the activation was inactive: 0.131%.
